Earlier results on 1 substance are cited in paper PMC8008175.

Protein sequences, listed by entry. Tags and fused reporters are not part of them. Residues count along the entry.
UniProt P38764, 391-642: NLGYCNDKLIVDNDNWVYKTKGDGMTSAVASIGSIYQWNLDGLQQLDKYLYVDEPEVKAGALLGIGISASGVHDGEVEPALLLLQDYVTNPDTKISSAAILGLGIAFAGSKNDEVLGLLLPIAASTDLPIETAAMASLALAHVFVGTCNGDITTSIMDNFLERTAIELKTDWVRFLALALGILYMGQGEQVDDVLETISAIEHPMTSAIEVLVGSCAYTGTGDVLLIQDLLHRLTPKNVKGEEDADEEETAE

What is called Kd is a measure of binding affinity in units of concentration.

One data set concerns the target K48-linked Ub2 (UniProt P0CG48).
Another data set concerns the target K11-linked Ub2 (UniProt P0CG48).

On to Rpn1 391-642 (from UniProt P38764), for which the Kd with K48-linked Ub2 was 123 µM; with K11-linked Ub2, 28 µM.
